Key:
Chlamydia trachomatis [1] = assay: (§1) Binding affinity to C-terminal 6His-tagged Chlamydia trachomatis DUB1 (130 to 401 residues) expressed in Escherichia coli Rosetta 2 (DE3) cells using Ub-Rh110Gly as fluorogenic substrate assessed as Kinact preincubated for 60 mins followed by substrate addition measured after 360 mins by plate reader analysis; details: time 420.0 min
Chlamydia trachomatis [2] = assay: as §1, with “ratio of Kinact/Ki” for “Kinact”; details: time 420.0 min

Structure (SMILES) | Kinact (Chlamydia trachomatis [1]) [min⁻¹] | Ratio (Chlamydia trachomatis [2]) [M⁻¹ s⁻¹]
N#Cc1ncc(C(=O)NCc2ccc(C(=O)NCc3ccccc3)cc2)cn1 | 0.198 | 14.6
N#Cc1ncc(C(=O)NCc2ccc(C(=O)NC34CC5CC(CC(C5)C3)C4)cc2)cn1 | 0.103 | 14.3
COc1ccccc1CNC(=O)c1ccc(CNC(=O)c2cnc(C#N)nc2)cc1 | 0.222 | –

Source: ChEMBL document CHEMBL5576083, “Structure-Based Design and Synthesis of Covalent Inhibitors for Deubiquitinase and Acetyltransferase ChlaDUB1 of Chlamydia trachomatis” (J Med Chem, 2024)
